# In paper PMC8327961, “Nse5/6 inhibits the Smc5/6 ATPase and modulates DNA substrate binding” (The EMBO Journal, 2021):
# Protein sequences, listed by entry. Tags and fused reporters are not part of them. Lines headed by an entry give the natural chain unless they say otherwise; changes in a name come on top.
# UniProt Q08204: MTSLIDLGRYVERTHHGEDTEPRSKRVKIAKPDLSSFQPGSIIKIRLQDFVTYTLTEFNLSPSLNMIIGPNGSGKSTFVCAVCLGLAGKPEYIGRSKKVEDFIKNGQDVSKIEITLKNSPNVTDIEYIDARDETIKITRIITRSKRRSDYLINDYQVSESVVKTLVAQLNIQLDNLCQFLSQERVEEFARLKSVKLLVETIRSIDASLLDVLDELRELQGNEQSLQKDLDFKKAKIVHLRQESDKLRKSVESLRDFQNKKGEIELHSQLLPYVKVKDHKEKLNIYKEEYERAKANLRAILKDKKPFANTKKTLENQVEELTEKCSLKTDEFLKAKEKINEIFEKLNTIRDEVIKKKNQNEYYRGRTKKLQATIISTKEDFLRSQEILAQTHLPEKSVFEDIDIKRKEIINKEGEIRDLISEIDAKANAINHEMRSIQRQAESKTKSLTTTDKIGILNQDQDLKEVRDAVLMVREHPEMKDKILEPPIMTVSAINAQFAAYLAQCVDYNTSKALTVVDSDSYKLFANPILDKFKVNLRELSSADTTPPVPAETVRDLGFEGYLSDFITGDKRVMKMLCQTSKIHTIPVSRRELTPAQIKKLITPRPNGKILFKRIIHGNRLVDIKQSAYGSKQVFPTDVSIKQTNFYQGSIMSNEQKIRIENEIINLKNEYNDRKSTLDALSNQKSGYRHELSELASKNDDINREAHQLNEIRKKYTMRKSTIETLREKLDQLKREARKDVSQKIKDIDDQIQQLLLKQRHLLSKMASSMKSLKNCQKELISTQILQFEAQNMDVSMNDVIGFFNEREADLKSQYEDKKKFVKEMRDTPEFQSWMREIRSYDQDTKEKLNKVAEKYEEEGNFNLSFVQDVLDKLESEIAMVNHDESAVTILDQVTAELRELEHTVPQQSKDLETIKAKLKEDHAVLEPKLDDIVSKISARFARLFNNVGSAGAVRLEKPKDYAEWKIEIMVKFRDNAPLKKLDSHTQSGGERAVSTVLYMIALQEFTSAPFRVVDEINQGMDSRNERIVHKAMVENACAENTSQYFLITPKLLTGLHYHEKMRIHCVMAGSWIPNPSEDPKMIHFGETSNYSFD
# UniProt Q12749: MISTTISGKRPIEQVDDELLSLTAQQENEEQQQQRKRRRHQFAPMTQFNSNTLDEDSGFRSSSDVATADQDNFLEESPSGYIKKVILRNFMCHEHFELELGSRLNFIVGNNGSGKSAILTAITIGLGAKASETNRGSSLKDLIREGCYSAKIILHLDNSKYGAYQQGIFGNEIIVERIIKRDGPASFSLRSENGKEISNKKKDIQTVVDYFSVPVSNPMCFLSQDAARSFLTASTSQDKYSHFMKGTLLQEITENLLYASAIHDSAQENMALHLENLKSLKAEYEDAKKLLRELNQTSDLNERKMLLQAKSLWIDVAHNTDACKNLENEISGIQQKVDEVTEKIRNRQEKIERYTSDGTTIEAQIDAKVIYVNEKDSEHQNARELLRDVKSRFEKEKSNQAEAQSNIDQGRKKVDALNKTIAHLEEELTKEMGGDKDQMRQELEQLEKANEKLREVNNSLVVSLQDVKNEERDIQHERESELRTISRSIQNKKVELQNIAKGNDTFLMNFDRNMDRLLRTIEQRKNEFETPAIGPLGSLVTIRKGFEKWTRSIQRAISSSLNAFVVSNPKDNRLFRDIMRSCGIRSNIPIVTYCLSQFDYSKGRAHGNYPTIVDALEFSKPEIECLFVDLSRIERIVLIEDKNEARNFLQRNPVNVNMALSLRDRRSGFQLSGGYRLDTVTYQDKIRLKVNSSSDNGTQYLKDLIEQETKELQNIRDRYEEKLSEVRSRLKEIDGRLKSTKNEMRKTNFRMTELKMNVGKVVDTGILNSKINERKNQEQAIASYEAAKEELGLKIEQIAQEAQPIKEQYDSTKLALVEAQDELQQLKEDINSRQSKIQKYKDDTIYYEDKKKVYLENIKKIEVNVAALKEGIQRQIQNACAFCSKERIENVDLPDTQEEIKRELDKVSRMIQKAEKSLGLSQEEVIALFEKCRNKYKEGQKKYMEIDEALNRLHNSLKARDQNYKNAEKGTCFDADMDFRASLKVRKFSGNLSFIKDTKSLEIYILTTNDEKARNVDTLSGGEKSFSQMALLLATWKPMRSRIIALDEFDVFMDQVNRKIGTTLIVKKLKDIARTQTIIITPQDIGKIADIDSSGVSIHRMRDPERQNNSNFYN
# Molecular target: Smc5/6 octamer (holo-complex; hexamer plus Nse5/6) (Saccharomyces cerevisiae, UniProt Q08204+Q12749)
# Experiment: pyruvate kinase/lactate dehydrogenase coupled ATPase assay, Michaelis-Menten fit
# Details: no DNA; 150 nM octamer; 10 mM Hepes-KOH pH 7.5, 150 mM potassium acetate, 2 mM MgCl2, 20% glycerol; 25 °C
smiles,measurement,value
Nc1ncnc2c1ncn2[C@@H]1O[C@H](COP(=O)(O)OP(=O)(O)OP(=O)(O)O)[C@@H](O)[C@H]1O [ATP],Km,"The curves were fitted to Michaelis–Menten equation, and Km and kcat values were determined"
